The source of these data is paper PMC12947556.

Assay [1] concerns the target ([H3K4me3K9acK14acK18ac]2) semisynthetic mononucleosome. The assay can be described thus: native MS; Nuc-MS MS1: GST-BPTF PHD-BD constructs mixed with PTM-defined semisynthetic mononucleosomes, intact complexes; three independent experiments.
Assay [2] has as its target GST-BPTF PHD-BD (UniProt Q12830). Described as above.
The target of assay [3] is ([H3K4me3K9acK14acK18ac]2) semisynthetic mononucleosome. The assay can be described thus: Luminex bead-based binding assay; GST-BPTF PHD-BD against PTM-defined semisynthetic nucleosomes; relative EC50 (EC50^Rel); methods in the SI.

As for “GST-BPTF PHD-BD (from UniProt Q12830 1-3046) (domain or fragment)”, the stoichiometry N in assay [1] and in assay [2] was 2 each time. The substance also came in with an EC50 in assay [3] of 0.0234 µM.

By stoichiometry N is commonly meant a count of units in the complex or per binding partner. The term EC50 denotes the concentration at which the effect is half-maximal. A low value points to an effect from little substance.
